Protein sequences, listed by entry. Tags and fused reporters are not part of them.
UniProt P51532, whole entry: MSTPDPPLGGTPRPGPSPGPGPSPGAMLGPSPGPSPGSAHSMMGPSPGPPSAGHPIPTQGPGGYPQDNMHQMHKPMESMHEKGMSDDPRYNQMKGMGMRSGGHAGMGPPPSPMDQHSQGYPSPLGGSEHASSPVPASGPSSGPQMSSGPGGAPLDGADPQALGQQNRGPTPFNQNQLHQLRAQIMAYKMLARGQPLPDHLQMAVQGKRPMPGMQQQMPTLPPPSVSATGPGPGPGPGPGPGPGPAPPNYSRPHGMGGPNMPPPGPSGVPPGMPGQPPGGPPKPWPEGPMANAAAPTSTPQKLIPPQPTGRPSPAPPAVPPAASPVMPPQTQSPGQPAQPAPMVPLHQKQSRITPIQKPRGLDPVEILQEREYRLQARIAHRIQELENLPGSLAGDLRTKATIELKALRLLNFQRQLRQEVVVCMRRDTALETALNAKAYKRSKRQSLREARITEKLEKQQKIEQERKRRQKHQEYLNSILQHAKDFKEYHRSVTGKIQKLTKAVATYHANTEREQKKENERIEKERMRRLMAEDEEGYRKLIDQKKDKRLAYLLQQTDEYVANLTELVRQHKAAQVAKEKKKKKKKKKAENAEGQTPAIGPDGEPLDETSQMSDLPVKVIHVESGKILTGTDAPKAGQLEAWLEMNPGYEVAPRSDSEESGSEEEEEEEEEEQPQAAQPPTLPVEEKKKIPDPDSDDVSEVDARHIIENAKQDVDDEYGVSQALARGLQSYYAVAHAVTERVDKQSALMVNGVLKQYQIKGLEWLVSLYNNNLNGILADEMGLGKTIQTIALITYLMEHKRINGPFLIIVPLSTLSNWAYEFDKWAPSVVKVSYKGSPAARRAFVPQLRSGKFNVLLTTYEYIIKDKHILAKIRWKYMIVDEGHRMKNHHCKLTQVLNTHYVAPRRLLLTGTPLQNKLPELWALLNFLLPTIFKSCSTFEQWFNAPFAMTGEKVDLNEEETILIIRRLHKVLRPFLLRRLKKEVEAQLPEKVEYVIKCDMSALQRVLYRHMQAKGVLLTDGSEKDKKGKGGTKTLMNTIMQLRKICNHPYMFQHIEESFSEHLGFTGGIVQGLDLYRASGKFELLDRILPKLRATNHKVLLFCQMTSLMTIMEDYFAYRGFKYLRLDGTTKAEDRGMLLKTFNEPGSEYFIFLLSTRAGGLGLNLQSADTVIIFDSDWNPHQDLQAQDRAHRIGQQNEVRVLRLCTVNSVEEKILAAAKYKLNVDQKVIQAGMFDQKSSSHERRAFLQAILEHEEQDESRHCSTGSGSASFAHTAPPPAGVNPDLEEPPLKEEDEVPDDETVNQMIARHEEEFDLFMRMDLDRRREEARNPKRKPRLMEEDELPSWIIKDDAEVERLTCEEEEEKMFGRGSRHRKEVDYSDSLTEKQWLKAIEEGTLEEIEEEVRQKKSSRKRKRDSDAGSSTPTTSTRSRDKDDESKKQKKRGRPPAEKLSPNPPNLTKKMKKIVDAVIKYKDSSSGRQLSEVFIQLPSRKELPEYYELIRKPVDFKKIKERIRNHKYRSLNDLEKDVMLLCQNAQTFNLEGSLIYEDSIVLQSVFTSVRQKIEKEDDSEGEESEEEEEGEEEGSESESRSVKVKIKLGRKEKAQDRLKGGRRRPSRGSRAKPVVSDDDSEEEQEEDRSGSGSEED

In ChEMBL document CHEMBL4049437, “Benzoisoquinolinediones as Potent and Selective Inhibitors of BRPF2 and TAF1/TAF1L Bromodomains” (J Med Chem, 2017):

Biological target: SWI/SNF-related matrix-associated actin-dependent regulator of chromatin subfamily A member 4 (Homo sapiens) (UniProt P51532)
Conditions: 10 uM

## Cc1cc2c(cc1N1C(=O)c3cccc4c(CCCO)ccc(c34)C1=O)n(C)c(=O)n2C
  deltaTm: 0.9 K
